Patent publication US11339169B2, “P2X3 and/or P2X2/3 compounds and methods” (Asana BioSciences, LLC, priority 2016, dated 2022)

The chains behind the UniProt entries cited, without tags or fusion partners.
UniProt P56373, whole entry: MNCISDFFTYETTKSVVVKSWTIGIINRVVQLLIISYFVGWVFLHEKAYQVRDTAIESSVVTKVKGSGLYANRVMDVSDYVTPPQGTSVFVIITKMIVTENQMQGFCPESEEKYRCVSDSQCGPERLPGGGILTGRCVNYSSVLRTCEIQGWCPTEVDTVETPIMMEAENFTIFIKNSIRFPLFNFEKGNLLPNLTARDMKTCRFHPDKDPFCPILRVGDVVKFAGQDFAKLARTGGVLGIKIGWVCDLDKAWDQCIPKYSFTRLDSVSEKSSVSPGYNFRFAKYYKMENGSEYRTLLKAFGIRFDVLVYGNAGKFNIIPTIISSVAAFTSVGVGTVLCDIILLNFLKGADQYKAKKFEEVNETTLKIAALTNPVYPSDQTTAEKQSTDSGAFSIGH
UniProt Q9UBL9, whole entry: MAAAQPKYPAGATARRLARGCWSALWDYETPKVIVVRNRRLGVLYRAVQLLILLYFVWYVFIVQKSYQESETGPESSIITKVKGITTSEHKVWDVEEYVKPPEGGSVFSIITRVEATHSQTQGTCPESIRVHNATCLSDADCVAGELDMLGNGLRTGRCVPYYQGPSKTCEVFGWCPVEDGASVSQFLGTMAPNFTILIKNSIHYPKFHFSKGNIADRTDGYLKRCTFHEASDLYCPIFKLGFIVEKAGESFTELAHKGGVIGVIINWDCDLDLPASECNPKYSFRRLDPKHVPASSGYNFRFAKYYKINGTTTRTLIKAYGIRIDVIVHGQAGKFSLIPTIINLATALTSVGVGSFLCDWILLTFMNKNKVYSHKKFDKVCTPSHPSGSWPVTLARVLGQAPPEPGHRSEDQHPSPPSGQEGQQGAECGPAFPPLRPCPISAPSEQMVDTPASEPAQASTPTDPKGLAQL

Legend:
hP2X3 = hP2X3 (Homo sapiens, UniProt P56373); assay: FLIPR intracellular calcium assay, hP2X3; settings: read-out: hP2X3 IC50, human P2X3-HEK cells, agonist at EC75
hP2X2/3 = hP2X2/3 (Homo sapiens, UniProt P56373+Q9UBL9); assay: FLIPR intracellular calcium assay, hP2X2/3; settings: read-out: hP2X2/3 IC50, human P2X2/3-TRex293 cells, agonist at EC75

IC50 (hP2X3): 1 to 100 nM | IC50 (hP2X2/3): 1000 to 10000 nM
Compound: CCC(C)n1ncc2nc(C(N)=O)nc(N[C@@H](c3cnc4ccccc4c3)C3CC3)c21 (some centres unmarked)
